# US12377104B1, “Methods for treating a fatty liver disease” (Madrigal Pharmaceuticals, Inc., priority 2024, dated 2025)
# Test system: adults with biopsy-confirmed NASH
# Test: MAESTRO-NASH: adverse events, serious adverse events, malignancies
# Conditions: 80 mg and 100 mg groups
smiles,measurement,value
"CC(C)c1cc(Oc2c(Cl)cc(-n3nc(C#N)c(=O)[nH]c3=O)cc2Cl)n[nH]c1=O [Resmetirom, 2-(3,5-dichloro-4-((5-isopropyl-6-oxo-1,6-dihydropyridazin-3-yl)oxy)phenyl)-3,5-dioxo-2,3,4,5-tetrahydro-1,2,4-triazine-6-carbonitrile]",patients who reported an adverse event,91.6 to 91.9%
